Reference: publication PMC7349888, “Synthesis and Evaluation of Dodecaboranethiol Containing Kojic Acid (KA-BSH) as a Novel Agent for Boron Neutron Capture Therapy” (Cells, 2020)
Several values for one entry are separate records, joined by “and”; a condition that tells them apart may be missing. Identical values can stand only once.

Test system: F98 glioma bearing rats
Test: Biodistribution in F98 glioma bearing rats (ICP-AES)
Type: in vivo, rat
Details: iv
Source text: All animal experimental procedures were approved by the Animal Use Review Board and Ethical Committee of Osaka Medical College (No. 25092, 28 October 2015) and Kyoto University Research Reactor Institute (KURRI, No. 25030-13, 1 April 2015), and performed following the Guide for the Care and Use of Laboratory Animals. Eight-week-old, male Fischer 344 rats weighing between 200 and 250 g were used (Japan SLC, Inc. Shizuoka, Japan). Rats were anesthetized with an intraperitoneal (ip) injection of a mixture of medetomidine 0.15 mg, midazolam 2 mg, and butorphanol 2.5 mg/kg body weight (bw). The head of each rat was fixed with a stereotactic frame (Model 900; David Kopf Instruments, Tujunga, CA, USA). The scalp was incised at the midline and a small burr hole was drilled into the skull (1 mm posterior and 4 mm right-lateral to the bregma), using an electric drill. And then, F98 glioma cells were injected into the brain using a 25 µL Hamilton microsyringe with a 26-gauge needle (model 1700 RN, Hamilton Bonaduz AG, Bonaduz, Switzerland). The needle was inserted at a 5 mm depth from the skull and F98 cells were diluted in 10 µL of DMEM containing low-gelling temperature agarose at a concentration of either 10^3 for therapeutic experiments or 10^5 cells for biodistribution experiments. They were injected over 30 s using an automatic infuser pump. The needle entry hole was immediately sealed with bone wax and the incised scalp was closed with 3-0 silk sutures (Ethicon, North Ryde, NSW). After surgery, all animals were given atipamezole hydrochloride (0.15 mg/kg bw, ip).
Biodistribution studies were performed in Fischer rats bearing intracerebral implants of F98 rat glioma cells. 10–13 days after tumor implantation of 10^5 F98 glioma cells, when signs of a progressively growing tumor were evident (weight loss, lethargy, hunching, and ataxia), biodistribution studies were initiated at which time the animals had tumors weighing 90–180 mg. […] To compare its biodistribution with that of BPA or BSH, another group of rats received an iv injection of BPA at a concentration of 10 mg ^10B/kg bw or BSH at a concentration of 30 mg ^10B/kg bw. Biodistribution was determined 1 and 3 h after termination of iv injection. Animals were euthanized by an overdose of sevoflurane following which tumors and normal tissues, consisting of ipsilateral brain, contralateral brain, blood, heart, lung, liver, spleen, kidney, skin, and muscle, were removed and weighed for ^10B determination by ICP-AES.

## S-(2-(5-hydroxy-4-oxo-4H-pyran-2-yl) methyl) Thioundecahydro-Closo- Dodecaborate (2-) Disodium Salt [KA-BSH]
10 mg 10B/kg, 1 h
  10B concentration, Kidney: 13.86 µg 10B/g
10 mg 10B/kg, 3 h
  10B concentration, Kidney: 3.35 µg 10B/g
20 mg 10B/kg, 1 h
  10B concentration, Kidney: 15.56 µg 10B/g
20 mg 10B/kg, 3 h
  10B concentration, Kidney: 3.22 µg 10B/g
30 mg 10B/kg, 1 h
  10B concentration, Kidney: 28.15 ± 7.96 µg 10B/g and 28.15 µg 10B/g
30 mg 10B/kg, 3 h
  10B concentration, Kidney: 5.27 ± 0.63 µg 10B/g and 5.27 µg 10B/g
